Molecular target: CRBN (Homo sapiens, UniProt Q96SW2)
Assay: CRBN binding affinity by HTRF (CEREBLON BINDING kit)
Details: CRBN binding, HTRF, compound at 0.5 µM

The chains behind the UniProt entries cited, without tags or fusion partners.
UniProt Q96SW2, whole entry: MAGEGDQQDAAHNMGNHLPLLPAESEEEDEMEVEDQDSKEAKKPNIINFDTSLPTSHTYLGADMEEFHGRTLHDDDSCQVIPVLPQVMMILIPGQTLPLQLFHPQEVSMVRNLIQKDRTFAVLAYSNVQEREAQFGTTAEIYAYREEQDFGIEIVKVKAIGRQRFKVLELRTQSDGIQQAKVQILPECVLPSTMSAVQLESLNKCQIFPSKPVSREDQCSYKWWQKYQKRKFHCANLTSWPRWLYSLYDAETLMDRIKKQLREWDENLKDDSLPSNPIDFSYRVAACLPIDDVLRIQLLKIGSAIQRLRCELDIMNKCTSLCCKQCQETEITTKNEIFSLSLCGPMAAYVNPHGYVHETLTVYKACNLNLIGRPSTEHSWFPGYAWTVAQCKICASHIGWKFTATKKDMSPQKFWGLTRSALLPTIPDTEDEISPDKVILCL
UniProt Q9UKS7, whole entry: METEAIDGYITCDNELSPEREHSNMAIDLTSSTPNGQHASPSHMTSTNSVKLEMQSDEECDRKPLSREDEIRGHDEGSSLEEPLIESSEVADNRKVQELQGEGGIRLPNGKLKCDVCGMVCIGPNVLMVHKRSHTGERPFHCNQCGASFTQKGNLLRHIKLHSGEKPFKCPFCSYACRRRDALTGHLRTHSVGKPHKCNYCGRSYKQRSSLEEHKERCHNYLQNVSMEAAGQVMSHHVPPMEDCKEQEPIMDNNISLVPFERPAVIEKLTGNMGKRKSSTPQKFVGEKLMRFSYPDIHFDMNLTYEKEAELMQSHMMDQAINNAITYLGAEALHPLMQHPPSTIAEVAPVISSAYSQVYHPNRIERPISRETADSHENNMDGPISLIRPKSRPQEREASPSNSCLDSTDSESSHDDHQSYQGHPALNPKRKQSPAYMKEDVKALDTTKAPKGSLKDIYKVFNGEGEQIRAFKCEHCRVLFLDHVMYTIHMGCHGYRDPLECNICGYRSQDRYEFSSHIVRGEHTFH
UniProt Q9UKT9, whole entry: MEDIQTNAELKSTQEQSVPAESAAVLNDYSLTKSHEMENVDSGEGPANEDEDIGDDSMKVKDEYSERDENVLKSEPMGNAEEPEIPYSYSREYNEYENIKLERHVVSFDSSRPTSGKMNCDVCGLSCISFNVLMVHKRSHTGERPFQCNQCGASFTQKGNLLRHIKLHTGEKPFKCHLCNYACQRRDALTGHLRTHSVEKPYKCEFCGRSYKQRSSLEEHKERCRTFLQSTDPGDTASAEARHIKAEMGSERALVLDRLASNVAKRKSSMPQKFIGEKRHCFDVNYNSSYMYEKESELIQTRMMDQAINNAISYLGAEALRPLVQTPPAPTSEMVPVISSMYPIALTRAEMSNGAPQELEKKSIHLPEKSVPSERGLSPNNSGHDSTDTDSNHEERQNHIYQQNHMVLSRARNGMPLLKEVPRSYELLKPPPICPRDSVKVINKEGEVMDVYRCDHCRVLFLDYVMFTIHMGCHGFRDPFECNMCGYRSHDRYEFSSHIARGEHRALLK
UniProt P48729, whole entry: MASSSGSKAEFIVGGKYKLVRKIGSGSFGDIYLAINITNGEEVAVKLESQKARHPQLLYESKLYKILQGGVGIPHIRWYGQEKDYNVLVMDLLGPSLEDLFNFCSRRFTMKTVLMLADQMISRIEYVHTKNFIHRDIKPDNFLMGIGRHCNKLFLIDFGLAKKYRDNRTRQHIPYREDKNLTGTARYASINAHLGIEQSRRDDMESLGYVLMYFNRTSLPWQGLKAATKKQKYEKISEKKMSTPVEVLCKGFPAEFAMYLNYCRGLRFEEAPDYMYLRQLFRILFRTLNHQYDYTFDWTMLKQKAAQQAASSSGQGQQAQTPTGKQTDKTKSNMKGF
UniProt P15170, whole entry: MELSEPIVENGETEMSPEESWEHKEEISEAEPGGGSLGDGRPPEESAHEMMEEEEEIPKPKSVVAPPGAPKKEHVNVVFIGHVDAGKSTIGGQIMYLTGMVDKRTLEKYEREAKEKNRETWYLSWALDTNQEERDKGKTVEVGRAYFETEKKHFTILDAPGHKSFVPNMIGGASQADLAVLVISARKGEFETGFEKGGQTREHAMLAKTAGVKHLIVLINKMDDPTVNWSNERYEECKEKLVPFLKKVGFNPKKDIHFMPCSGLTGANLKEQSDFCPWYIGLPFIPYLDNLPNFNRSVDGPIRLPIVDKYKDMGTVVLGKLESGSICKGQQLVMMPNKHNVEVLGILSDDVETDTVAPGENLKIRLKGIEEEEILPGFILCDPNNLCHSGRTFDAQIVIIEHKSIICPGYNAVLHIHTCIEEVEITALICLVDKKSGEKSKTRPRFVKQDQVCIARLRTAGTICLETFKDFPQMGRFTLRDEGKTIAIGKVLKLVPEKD
UniProt Q13422, whole entry: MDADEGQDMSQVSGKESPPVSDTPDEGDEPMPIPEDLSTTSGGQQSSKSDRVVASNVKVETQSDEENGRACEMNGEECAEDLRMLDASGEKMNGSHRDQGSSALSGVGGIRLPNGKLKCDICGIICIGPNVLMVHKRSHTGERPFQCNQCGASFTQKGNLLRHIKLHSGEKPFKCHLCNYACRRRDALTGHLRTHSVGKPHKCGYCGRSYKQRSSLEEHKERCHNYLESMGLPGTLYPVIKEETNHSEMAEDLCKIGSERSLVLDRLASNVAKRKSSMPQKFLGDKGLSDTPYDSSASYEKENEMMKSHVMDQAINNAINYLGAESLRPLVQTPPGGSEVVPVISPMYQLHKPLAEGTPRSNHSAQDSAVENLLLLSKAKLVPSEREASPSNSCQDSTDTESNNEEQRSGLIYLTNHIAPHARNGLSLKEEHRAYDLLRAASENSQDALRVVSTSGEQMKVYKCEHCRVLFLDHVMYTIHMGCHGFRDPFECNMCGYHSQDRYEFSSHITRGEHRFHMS
UniProt P30291, whole entry: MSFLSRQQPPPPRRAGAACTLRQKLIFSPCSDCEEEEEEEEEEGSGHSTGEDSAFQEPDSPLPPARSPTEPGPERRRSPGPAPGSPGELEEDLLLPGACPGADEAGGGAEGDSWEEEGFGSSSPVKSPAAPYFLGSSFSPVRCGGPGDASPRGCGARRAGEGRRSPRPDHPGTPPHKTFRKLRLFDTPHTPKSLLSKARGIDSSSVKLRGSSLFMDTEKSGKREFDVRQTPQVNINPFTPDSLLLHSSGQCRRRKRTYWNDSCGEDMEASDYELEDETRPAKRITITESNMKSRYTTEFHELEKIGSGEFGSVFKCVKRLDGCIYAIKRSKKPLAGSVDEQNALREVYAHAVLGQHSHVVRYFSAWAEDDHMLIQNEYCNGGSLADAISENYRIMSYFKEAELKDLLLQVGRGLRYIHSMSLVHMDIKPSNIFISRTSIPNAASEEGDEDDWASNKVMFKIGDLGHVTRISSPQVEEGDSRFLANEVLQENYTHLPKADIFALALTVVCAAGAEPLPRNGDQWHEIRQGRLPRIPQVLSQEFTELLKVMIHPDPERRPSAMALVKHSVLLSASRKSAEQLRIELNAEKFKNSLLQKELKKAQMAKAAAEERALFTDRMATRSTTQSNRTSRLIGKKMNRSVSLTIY
UniProt Q16531, whole entry partner: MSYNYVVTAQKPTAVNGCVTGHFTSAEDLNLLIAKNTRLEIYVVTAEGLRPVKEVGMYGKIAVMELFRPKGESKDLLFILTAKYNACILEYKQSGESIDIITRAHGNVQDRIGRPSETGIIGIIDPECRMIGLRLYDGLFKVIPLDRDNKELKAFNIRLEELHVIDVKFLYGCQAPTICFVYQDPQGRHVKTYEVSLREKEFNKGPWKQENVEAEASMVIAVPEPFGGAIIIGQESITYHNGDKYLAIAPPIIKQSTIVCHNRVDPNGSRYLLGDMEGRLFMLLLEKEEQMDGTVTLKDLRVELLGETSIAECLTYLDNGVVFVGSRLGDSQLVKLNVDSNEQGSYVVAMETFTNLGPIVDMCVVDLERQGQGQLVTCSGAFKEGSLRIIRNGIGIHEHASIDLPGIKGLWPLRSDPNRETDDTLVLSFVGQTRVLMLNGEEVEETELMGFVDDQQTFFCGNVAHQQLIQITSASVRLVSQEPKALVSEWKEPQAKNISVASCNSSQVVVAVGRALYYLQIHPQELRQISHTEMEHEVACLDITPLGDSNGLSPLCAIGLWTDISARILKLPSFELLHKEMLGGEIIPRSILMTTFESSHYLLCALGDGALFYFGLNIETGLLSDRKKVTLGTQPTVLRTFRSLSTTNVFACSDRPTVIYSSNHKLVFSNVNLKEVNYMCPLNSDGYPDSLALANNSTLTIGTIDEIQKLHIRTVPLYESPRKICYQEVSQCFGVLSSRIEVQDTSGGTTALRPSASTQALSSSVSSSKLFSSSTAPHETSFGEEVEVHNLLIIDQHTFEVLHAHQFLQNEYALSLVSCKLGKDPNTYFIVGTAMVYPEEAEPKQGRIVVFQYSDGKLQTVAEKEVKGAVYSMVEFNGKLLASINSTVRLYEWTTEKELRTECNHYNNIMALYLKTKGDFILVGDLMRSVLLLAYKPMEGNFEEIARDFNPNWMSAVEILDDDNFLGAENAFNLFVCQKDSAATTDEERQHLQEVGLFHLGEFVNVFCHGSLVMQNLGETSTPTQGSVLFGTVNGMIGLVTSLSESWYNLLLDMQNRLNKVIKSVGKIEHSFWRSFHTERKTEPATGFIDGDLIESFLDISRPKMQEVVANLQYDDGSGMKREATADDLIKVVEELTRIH

SMILES | Inhibition Rate at 0.5 µM (%)
O=C1CCC(N2Cc3ccc(CN4CCC(N5CCN(C(c6ccccc6)c6ccccc6)CC5)C(F)(F)C4)cc3C2=S)C(=O)N1 (centres unmarked) | a4 (40% < a4 ≤ 53%)
O=C1CCC(N2Cc3cc(CCCN4CCC(N5CCN(C(c6ccccc6)c6ccccc6)CC5)C(F)(F)C4)ccc3C2=O)C(=O)N1 (centres unmarked) | a4 (40% < a4 ≤ 53%)
O=C1CCC(N2Cc3ccc(CN4CCC(N5CCC(c6noc7cc(F)ccc67)CC5)C(F)(F)C4)cc3C2=S)C(=O)N1 (centres unmarked) | a4 (40% < a4 ≤ 53%)
O=C1CCC(N2Cc3cccc(CN4CCC(N5CCN(c6cccc(Cl)c6Cl)CC5)CC4)c3C2=O)C(=O)N1 (centres unmarked) | a3 (30% < a3 ≤ 40%)

Same assay, conditions: CRBN binding, HTRF, compound at 2 µM

SMILES | Inhibition Rate at 2 µM (%)
O=C1CCC(N2Cc3ccc(CN4CCC(N5CCN(C(c6ccccc6)c6ccccc6)CC5)C(F)(F)C4)cc3C2=S)C(=O)N1 (centres unmarked) | a7 (70% < a7 ≤80%)
O=C1CCC(N2Cc3cc(CCCN4CCC(N5CCN(C(c6ccccc6)c6ccccc6)CC5)C(F)(F)C4)ccc3C2=O)C(=O)N1 (centres unmarked) | a8 (80% < a8 ≤100%)
O=C1CCC(N2Cc3ccc(CN4CCC(N5CCC(c6noc7cc(F)ccc67)CC5)C(F)(F)C4)cc3C2=S)C(=O)N1 (centres unmarked) | a6 (60% < a6 ≤ 70%)
O=C1CCC(N2Cc3cccc(CN4CCC(N5CCN(c6cccc(Cl)c6Cl)CC5)CC4)c3C2=O)C(=O)N1 (centres unmarked) | a5 (53% < a5 ≤ 60%)

Same assay, conditions: read-out: HTRF IC50; human Cereblon WT GST-tagged protein; 3 hours at room temperature

SMILES | IC50 [nM]
O=C1CCC(N2Cc3cc(CN4CCC(N5CCN(c6cccc(Cl)c6Cl)CC5)CC4)cc(F)c3C2=O)C(=O)N1 (centres unmarked) | 500 to 1000
O=C1CCC(N2Cc3cc(CN4CCC(N5CCN(c6cccc(Cl)c6Cl)CC5)CC4)c(F)cc3C2=O)C(=O)N1 (centres unmarked) | 1000 to 1500
O=C1CCC(N2Cc3c(ccc(CN4CCC(N5CCN(c6cccc(Cl)c6Cl)CC5)CC4)c3F)C2=O)C(=O)N1 (centres unmarked) | 500 to 1000

Molecular target: IKZF2 (Homo sapiens, UniProt Q96SW2+Q9UKS7)
Assay: Western blot assay of substrate protein degradation in hPBMCs
Details: 24 hours treatment, compounds at 50 nM and 500 nM (concentration behind the class not stated)

SMILES | substrate protein remaining % (IKZF2)
O=C1CCC(N2Cc3cc(CN4CCC(N5CCN(c6cccc(Cl)c6Cl)CC5)CC4)cc(F)c3C2=O)C(=O)N1 (centres unmarked) | A (0% ≤ substrate protein remaining % ≤ 80%)
O=C1CCC(N2Cc3cc(CN4CCC(N5CCN(c6cccc(Cl)c6Cl)CC5)CC4)c(F)cc3C2=O)C(=O)N1 (centres unmarked) | A (0% ≤ substrate protein remaining % ≤ 80%)
O=C1CCC(N2Cc3ccc(CN4CCC(N5CCN(C(c6ccccc6)c6ccccc6)CC5)C(F)(F)C4)cc3C2=S)C(=O)N1 (centres unmarked) | B (80%< substrate protein remaining %≤ 100%)
O=C1CCC(N2Cc3cc(CCCN4CCC(N5CCN(C(c6ccccc6)c6ccccc6)CC5)C(F)(F)C4)ccc3C2=O)C(=O)N1 (centres unmarked) | B (80%< substrate protein remaining %≤ 100%)
O=C1CCC(N2Cc3c(ccc(CN4CCC(N5CCN(c6cccc(Cl)c6Cl)CC5)CC4)c3F)C2=O)C(=O)N1 (centres unmarked) | B (80%< substrate protein remaining %≤ 100%)
O=C1CCC(N2Cc3ccc(CN4CCC(N5CCC(c6noc7cc(F)ccc67)CC5)C(F)(F)C4)cc3C2=S)C(=O)N1 (centres unmarked) | B (80%< substrate protein remaining %≤ 100%)
O=C1CCC(N2Cc3cccc(CN4CCC(N5CCN(c6cccc(Cl)c6Cl)CC5)CC4)c3C2=O)C(=O)N1 (centres unmarked) | B (80%< substrate protein remaining %≤ 100%)

Molecular target: IKZF3 (Homo sapiens, UniProt Q96SW2+Q9UKT9)
Assay: as above
Details: 24 hours treatment, compounds at 50 nM and 500 nM (concentration behind the class not stated)

SMILES | substrate protein remaining % (IKZF3)
O=C1CCC(N2Cc3cc(CN4CCC(N5CCN(c6cccc(Cl)c6Cl)CC5)CC4)cc(F)c3C2=O)C(=O)N1 (centres unmarked) | B (80%< substrate protein remaining %≤ 100%)
O=C1CCC(N2Cc3cc(CN4CCC(N5CCN(c6cccc(Cl)c6Cl)CC5)CC4)c(F)cc3C2=O)C(=O)N1 (centres unmarked) | B (80%< substrate protein remaining %≤ 100%)
O=C1CCC(N2Cc3ccc(CN4CCC(N5CCN(C(c6ccccc6)c6ccccc6)CC5)C(F)(F)C4)cc3C2=S)C(=O)N1 (centres unmarked) | A (0% ≤ substrate protein remaining % ≤ 80%)
O=C1CCC(N2Cc3cc(CCCN4CCC(N5CCN(C(c6ccccc6)c6ccccc6)CC5)C(F)(F)C4)ccc3C2=O)C(=O)N1 (centres unmarked) | B (80%< substrate protein remaining %≤ 100%)
O=C1CCC(N2Cc3c(ccc(CN4CCC(N5CCN(c6cccc(Cl)c6Cl)CC5)CC4)c3F)C2=O)C(=O)N1 (centres unmarked) | A (0% ≤ substrate protein remaining % ≤ 80%)
O=C1CCC(N2Cc3ccc(CN4CCC(N5CCC(c6noc7cc(F)ccc67)CC5)C(F)(F)C4)cc3C2=S)C(=O)N1 (centres unmarked) | B (80%< substrate protein remaining %≤ 100%)
O=C1CCC(N2Cc3cccc(CN4CCC(N5CCN(c6cccc(Cl)c6Cl)CC5)CC4)c3C2=O)C(=O)N1 (centres unmarked) | B (80%< substrate protein remaining %≤ 100%)

Molecular target: CK1α (Homo sapiens, UniProt P48729+Q96SW2)
Assay: as above
Details: 24 hours treatment, compounds at 50 nM and 500 nM (concentration behind the class not stated)

SMILES | substrate protein remaining % (CK1a)
O=C1CCC(N2Cc3cc(CN4CCC(N5CCN(c6cccc(Cl)c6Cl)CC5)CC4)cc(F)c3C2=O)C(=O)N1 (centres unmarked) | B (80%< substrate protein remaining %≤ 100%)
O=C1CCC(N2Cc3cc(CN4CCC(N5CCN(c6cccc(Cl)c6Cl)CC5)CC4)c(F)cc3C2=O)C(=O)N1 (centres unmarked) | B (80%< substrate protein remaining %≤ 100%)
O=C1CCC(N2Cc3ccc(CN4CCC(N5CCN(C(c6ccccc6)c6ccccc6)CC5)C(F)(F)C4)cc3C2=S)C(=O)N1 (centres unmarked) | B (80%< substrate protein remaining %≤ 100%)
O=C1CCC(N2Cc3cc(CCCN4CCC(N5CCN(C(c6ccccc6)c6ccccc6)CC5)C(F)(F)C4)ccc3C2=O)C(=O)N1 (centres unmarked) | B (80%< substrate protein remaining %≤ 100%)
O=C1CCC(N2Cc3c(ccc(CN4CCC(N5CCN(c6cccc(Cl)c6Cl)CC5)CC4)c3F)C2=O)C(=O)N1 (centres unmarked) | B (80%< substrate protein remaining %≤ 100%)
O=C1CCC(N2Cc3ccc(CN4CCC(N5CCC(c6noc7cc(F)ccc67)CC5)C(F)(F)C4)cc3C2=S)C(=O)N1 (centres unmarked) | B (80%< substrate protein remaining %≤ 100%)
O=C1CCC(N2Cc3cccc(CN4CCC(N5CCN(c6cccc(Cl)c6Cl)CC5)CC4)c3C2=O)C(=O)N1 (centres unmarked) | B (80%< substrate protein remaining %≤ 100%)

Molecular target: GSPT1 (Homo sapiens, UniProt P15170+Q96SW2)
Assay: as above
Details: 24 hours treatment, compounds at 50 nM and 500 nM (concentration behind the class not stated)

SMILES | substrate protein remaining % (GSPT1)
O=C1CCC(N2Cc3cc(CN4CCC(N5CCN(c6cccc(Cl)c6Cl)CC5)CC4)cc(F)c3C2=O)C(=O)N1 (centres unmarked) | A (0% ≤ substrate protein remaining % ≤ 80%)
O=C1CCC(N2Cc3cc(CN4CCC(N5CCN(c6cccc(Cl)c6Cl)CC5)CC4)c(F)cc3C2=O)C(=O)N1 (centres unmarked) | A (0% ≤ substrate protein remaining % ≤ 80%)
O=C1CCC(N2Cc3ccc(CN4CCC(N5CCN(C(c6ccccc6)c6ccccc6)CC5)C(F)(F)C4)cc3C2=S)C(=O)N1 (centres unmarked) | B (80%< substrate protein remaining %≤ 100%)
O=C1CCC(N2Cc3cc(CCCN4CCC(N5CCN(C(c6ccccc6)c6ccccc6)CC5)C(F)(F)C4)ccc3C2=O)C(=O)N1 (centres unmarked) | A (0% ≤ substrate protein remaining % ≤ 80%)
O=C1CCC(N2Cc3c(ccc(CN4CCC(N5CCN(c6cccc(Cl)c6Cl)CC5)CC4)c3F)C2=O)C(=O)N1 (centres unmarked) | B (80%< substrate protein remaining %≤ 100%)
O=C1CCC(N2Cc3ccc(CN4CCC(N5CCC(c6noc7cc(F)ccc67)CC5)C(F)(F)C4)cc3C2=S)C(=O)N1 (centres unmarked) | A (0% ≤ substrate protein remaining % ≤ 80%)
O=C1CCC(N2Cc3cccc(CN4CCC(N5CCN(c6cccc(Cl)c6Cl)CC5)CC4)c3C2=O)C(=O)N1 (centres unmarked) | A (0% ≤ substrate protein remaining % ≤ 80%)

Molecular target: IKZF1 (Homo sapiens, UniProt Q13422+Q96SW2)
Assay: as above
Details: 24 hours treatment, compounds at 50 nM and 500 nM (concentration behind the class not stated)

SMILES | substrate protein remaining % (IKZF 1)
O=C1CCC(N2Cc3cc(CN4CCC(N5CCN(c6cccc(Cl)c6Cl)CC5)CC4)cc(F)c3C2=O)C(=O)N1 (centres unmarked) | A (0% ≤ substrate protein remaining % ≤ 80%)
O=C1CCC(N2Cc3cc(CN4CCC(N5CCN(c6cccc(Cl)c6Cl)CC5)CC4)c(F)cc3C2=O)C(=O)N1 (centres unmarked) | A (0% ≤ substrate protein remaining % ≤ 80%)
O=C1CCC(N2Cc3ccc(CN4CCC(N5CCN(C(c6ccccc6)c6ccccc6)CC5)C(F)(F)C4)cc3C2=S)C(=O)N1 (centres unmarked) | B (80%< substrate protein remaining %≤ 100%)
O=C1CCC(N2Cc3cc(CCCN4CCC(N5CCN(C(c6ccccc6)c6ccccc6)CC5)C(F)(F)C4)ccc3C2=O)C(=O)N1 (centres unmarked) | B (80%< substrate protein remaining %≤ 100%)
O=C1CCC(N2Cc3c(ccc(CN4CCC(N5CCN(c6cccc(Cl)c6Cl)CC5)CC4)c3F)C2=O)C(=O)N1 (centres unmarked) | A (0% ≤ substrate protein remaining % ≤ 80%)
O=C1CCC(N2Cc3ccc(CN4CCC(N5CCC(c6noc7cc(F)ccc67)CC5)C(F)(F)C4)cc3C2=S)C(=O)N1 (centres unmarked) | B (80%< substrate protein remaining %≤ 100%)
O=C1CCC(N2Cc3cccc(CN4CCC(N5CCN(c6cccc(Cl)c6Cl)CC5)CC4)c3C2=O)C(=O)N1 (centres unmarked) | B (80%< substrate protein remaining %≤ 100%)

Molecular target: WEE1 (Homo sapiens, UniProt P30291+Q96SW2)
Assay: as above
Details: 24 hours treatment, compounds at 50 nM and 500 nM (concentration behind the class not stated)

SMILES | substrate protein remaining % (WEE1)
O=C1CCC(N2Cc3cc(CN4CCC(N5CCN(c6cccc(Cl)c6Cl)CC5)CC4)cc(F)c3C2=O)C(=O)N1 (centres unmarked) | B (80%< substrate protein remaining %≤ 100%)
O=C1CCC(N2Cc3cc(CN4CCC(N5CCN(c6cccc(Cl)c6Cl)CC5)CC4)c(F)cc3C2=O)C(=O)N1 (centres unmarked) | A (0% ≤ substrate protein remaining % ≤ 80%)
O=C1CCC(N2Cc3ccc(CN4CCC(N5CCN(C(c6ccccc6)c6ccccc6)CC5)C(F)(F)C4)cc3C2=S)C(=O)N1 (centres unmarked) | B (80%< substrate protein remaining %≤ 100%)
O=C1CCC(N2Cc3cc(CCCN4CCC(N5CCN(C(c6ccccc6)c6ccccc6)CC5)C(F)(F)C4)ccc3C2=O)C(=O)N1 (centres unmarked) | B (80%< substrate protein remaining %≤ 100%)
O=C1CCC(N2Cc3c(ccc(CN4CCC(N5CCN(c6cccc(Cl)c6Cl)CC5)CC4)c3F)C2=O)C(=O)N1 (centres unmarked) | A (0% ≤ substrate protein remaining % ≤ 80%)
O=C1CCC(N2Cc3ccc(CN4CCC(N5CCC(c6noc7cc(F)ccc67)CC5)C(F)(F)C4)cc3C2=S)C(=O)N1 (centres unmarked) | B (80%< substrate protein remaining %≤ 100%)
O=C1CCC(N2Cc3cccc(CN4CCC(N5CCN(c6cccc(Cl)c6Cl)CC5)CC4)c3C2=O)C(=O)N1 (centres unmarked) | A (0% ≤ substrate protein remaining % ≤ 80%)

Reference: patent EP4834897A1, “COMPOUNDS WITH TWO AZAHETEROCYCLES SUBSTITUTED ISOINDOLINONE SKELETON AND USES THEREOF” (dated 2026)
